The text below walks through data of patent publication US8680150B2, “Small molecule hematopoietic growth factor mimetic compounds that activate hematopoietic growth factor receptors” (Ligand Pharmaceuticals, Inc., priority 2009, dated 2014).

In the experiment the test system is UT7/EPO Cell line. The experiment can be described thus: Cell proliferation assay in UT7/EPO cell line (ViaLight Plus). It counts as cell-based, human. As to conditions: compound at 10 uM; efficacy relative to EPO (100%); UT7/EPO cells expressing endogenous EPO receptor, starved of EPO overnight; 72 hours at 37° C. As for the experimental part:
The primary testing for the exemplified compounds was performed in UT7/EPO Cell line. UT7/EPO is human leukemia cell line, obtained from Dr. Norio Komatsu (Blood, Vol 82 (2), pp 456-464, 1993). These cells express endogenous EPO receptor and are dependant upon EPO for growth and proliferation. Briefly, the cells were starved of EPO overnight and plated in 96 or 384 well plates. The compounds were added to the cells at 10 uM concentration. The plates were then incubated at 37° C. for 72 hours. The proliferative effect of the compounds was measured by a commercially available kit from Lonza (ViaLight Plus).

SMILES strings stand for the structures.

As for `COc1cccc(/C=N/NC(=O)c2cc(-c3ccc4ccccc4c3)n[nH]2)c1` [Compound 146, 3-(2-Naphthylpyrazolyl-5-)carboxyl(3-methoxybenzylidene)hydrazide], the “Activity (%)” value was 4.2%.
